Data reported in paper PMC12663137 (Nature Communications, 2025).
Several values for one entry are separate records, joined by “and”; a condition that tells them apart may be missing. Identical values can stand only once.

By UniProt entry, the sequences of proteins in these tests, tags left out. Where a name states a change or a piece, a line headed by the entry shows the natural chain unless it says otherwise. Residues count along the entry.
UniProt Q7L0J3, 141-742 F188A limits assumed: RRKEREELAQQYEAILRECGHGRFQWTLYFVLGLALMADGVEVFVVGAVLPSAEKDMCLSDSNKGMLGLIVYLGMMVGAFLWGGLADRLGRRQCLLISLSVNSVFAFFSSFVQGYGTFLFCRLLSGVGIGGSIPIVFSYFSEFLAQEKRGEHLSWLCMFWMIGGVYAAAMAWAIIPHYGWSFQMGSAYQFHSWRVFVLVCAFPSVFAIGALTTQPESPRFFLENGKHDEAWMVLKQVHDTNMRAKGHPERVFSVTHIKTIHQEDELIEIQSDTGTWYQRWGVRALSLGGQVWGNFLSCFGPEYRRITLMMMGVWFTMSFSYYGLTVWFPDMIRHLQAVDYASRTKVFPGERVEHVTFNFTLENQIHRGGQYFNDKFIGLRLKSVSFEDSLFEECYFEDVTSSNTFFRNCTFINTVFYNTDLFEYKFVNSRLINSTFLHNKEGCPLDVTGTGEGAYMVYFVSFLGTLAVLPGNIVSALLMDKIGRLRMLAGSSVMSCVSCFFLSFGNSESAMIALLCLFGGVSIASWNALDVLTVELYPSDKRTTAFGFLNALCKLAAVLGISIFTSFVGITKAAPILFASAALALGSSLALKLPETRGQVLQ
UniProt Q7L0J3, 141-742 limits assumed: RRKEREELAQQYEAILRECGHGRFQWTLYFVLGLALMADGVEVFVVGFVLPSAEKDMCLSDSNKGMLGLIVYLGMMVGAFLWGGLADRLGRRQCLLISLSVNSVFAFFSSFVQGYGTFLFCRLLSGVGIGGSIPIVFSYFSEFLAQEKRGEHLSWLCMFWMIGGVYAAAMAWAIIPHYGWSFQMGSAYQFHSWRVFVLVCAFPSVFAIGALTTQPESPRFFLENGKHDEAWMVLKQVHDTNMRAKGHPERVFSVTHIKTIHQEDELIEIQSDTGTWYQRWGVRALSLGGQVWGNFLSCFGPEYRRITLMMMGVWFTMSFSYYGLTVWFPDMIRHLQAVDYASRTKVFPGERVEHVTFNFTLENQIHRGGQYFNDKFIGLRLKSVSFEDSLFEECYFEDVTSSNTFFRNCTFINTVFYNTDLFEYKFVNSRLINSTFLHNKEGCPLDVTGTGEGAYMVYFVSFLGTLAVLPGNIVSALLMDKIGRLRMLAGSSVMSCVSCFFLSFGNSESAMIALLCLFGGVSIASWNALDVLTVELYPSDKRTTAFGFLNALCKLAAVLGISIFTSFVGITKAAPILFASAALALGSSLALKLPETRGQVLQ
UniProt Q7L0J3, whole entry: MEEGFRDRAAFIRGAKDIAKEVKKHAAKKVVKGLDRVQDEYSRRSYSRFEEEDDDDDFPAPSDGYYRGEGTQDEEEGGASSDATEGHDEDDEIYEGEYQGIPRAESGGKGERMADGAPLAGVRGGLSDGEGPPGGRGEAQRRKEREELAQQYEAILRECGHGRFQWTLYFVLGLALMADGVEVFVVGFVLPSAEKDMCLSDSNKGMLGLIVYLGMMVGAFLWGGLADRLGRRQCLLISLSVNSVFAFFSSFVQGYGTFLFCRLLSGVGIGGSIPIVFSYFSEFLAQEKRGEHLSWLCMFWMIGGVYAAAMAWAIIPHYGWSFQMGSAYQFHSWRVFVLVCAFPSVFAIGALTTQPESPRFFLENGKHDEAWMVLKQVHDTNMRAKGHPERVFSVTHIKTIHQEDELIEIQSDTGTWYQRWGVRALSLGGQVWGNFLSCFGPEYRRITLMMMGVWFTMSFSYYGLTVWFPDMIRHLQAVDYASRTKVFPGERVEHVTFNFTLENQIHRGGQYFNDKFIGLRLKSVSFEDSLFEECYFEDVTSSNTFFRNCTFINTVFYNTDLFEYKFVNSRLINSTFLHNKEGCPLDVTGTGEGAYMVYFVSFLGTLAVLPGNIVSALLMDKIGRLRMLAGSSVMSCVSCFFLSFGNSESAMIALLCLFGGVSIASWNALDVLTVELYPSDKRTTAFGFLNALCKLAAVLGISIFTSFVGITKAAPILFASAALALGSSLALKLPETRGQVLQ

Legend:
SV2A = SV2A (Homo sapiens, UniProt Q7L0J3); test: Steady-state (saturation) binding of 3H-UCB-J with 30 µM UCB1244283 or 1% DMSO (Fig. 4A); conditions: tested as the radiolabelled form
[1] = target: SV2AEM WT or SV2AEM F188A (Homo sapiens, UniProt Q7L0J3); test: Dissociation kinetics of 3H-UCB-J (Fig. 4E); conditions: WT, DMSO, tested as the radiolabelled form
[2] = target: SV2AEM WT or SV2AEM F188A (Homo sapiens, UniProt Q7L0J3, F188A); test: Dissociation kinetics of 3H-UCB-J (Fig. 4E); conditions: F188A, DMSO, tested as the radiolabelled form
SV2AEM = SV2AEM (Homo sapiens, UniProt Q7L0J3); test: Association kinetics of 3H-UCB-J after pre-incubation with UCB1244283 (Fig. 4F); conditions: pre-incubate DMSO, tested as the radiolabelled form

## Cc1cnccc1CN1C[C@@H](c2cc(F)c(F)c(F)c2)CC1=O [UCB-J]
SV2A; DMSO, 3H-UCB-J 1.56 nM
  3H-UCB-J Binding (f.mol/assay): 2 f.mol/assay and 3 f.mol/assay and 4 f.mol/assay
SV2A; with 30 µM UCB1244283
  Kd: 11.1 nM
  binding capacity: 126 fmol/assay
SV2A; without UCB1244283 (1% DMSO)
  Kd: 19.9 nM
  binding capacity: 43.8 fmol/assay
[1]; 6 min
  3H-UCB-J Binding (%): 16.81% and 32.44% and 23.64%
[1]; 7 min
  3H-UCB-J Binding (%): 18.27% and 28.46% and 22.70%
[1]; 8 min
  3H-UCB-J Binding (%): 14.73% and 29.13% and 23.48%
[1]; 60 min
  3H-UCB-J Binding (%): 0.00%
[2]; 2 min
  3H-UCB-J Binding (%): 43.17% and 40.73%
[2]; 3 min
  3H-UCB-J Binding (%): 49.47% and 40.14%
[2]; 4 min
  3H-UCB-J Binding (%): 59.39% and 38.71%
[2]; 5 min
  3H-UCB-J Binding (%): 28.29% and 39.47%
[2]; 6 min
  3H-UCB-J Binding (%): 20.72% and 31.32%
[2]; 7 min
  3H-UCB-J Binding (%): 18.54% and 29.80%
[2]; 8 min
  3H-UCB-J Binding (%): 19.38%
[2]; 9 min
  3H-UCB-J Binding (%): 13.07% and 16.27%
[2]; 25 min
  3H-UCB-J Binding (%): 3.74% and 5.67%
[2]; 30 min
  3H-UCB-J Binding (%): 1.72% and 2.06%
[2]; 40 min
  3H-UCB-J Binding (%): 4.58% and 2.56%
[2]; 50 min
  3H-UCB-J Binding (%): 6.94% and 9.54%
[2]; 60 min
  3H-UCB-J Binding (%): 8.53% and 6.68%
[2]; 70 min
  3H-UCB-J Binding (%): 4.92% and 4.33%
SV2AEM; 0.5 min
  3H-UCB-J Binding (%): 0.16% and 0.30% and 0.33%
SV2AEM; 1 min
  3H-UCB-J Binding (%): 0.25% and 0.34% and 0.36%
SV2AEM; 3.5 min
  3H-UCB-J Binding (%): 0.52% and 0.66% and 0.57%
SV2AEM; 5 min
  3H-UCB-J Binding (%): 0.59% and 0.58% and 0.69%
